## AlphaSeq binding of Ab-14 heavy chain variants to a spike HR2 peptide

Data: MIT Lincoln Laboratory AlphaSeq set, Li et al. 2023, doi:10.1038/s41467-023-39022-2, as distributed in FLAb.

Binding partner: SARS-CoV-2 spike HR2 peptide, sequence PDVDLGDISGINAS.

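The starting antibody came from a phage panning campaign against this peptide. This is the validation round: designs drawn from the data on random variants, tested in the same kind of assay. Their group label is 14H_En_HC (En: ensemble of fine-tuned language models; HC: hill climbing; a sequence that several methods proposed may carry one label only). The scFvs were displayed on barcoded MATa yeast, the peptide on MATalpha yeast. Binding brings cells together so that they mate, and sequencing counts the barcode pairs among the diploids. The ratio of observed to expected reads was calibrated, replicate by replicate, on BCL2-family standards whose Kd was known from biolayer interferometry. There are six technical replicates.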

Parent scFv Ab-14: VH joined to VL by the linker GGGGSGGGGSGGGGS. Changes lie in the heavy chain CDRs alone.
VH: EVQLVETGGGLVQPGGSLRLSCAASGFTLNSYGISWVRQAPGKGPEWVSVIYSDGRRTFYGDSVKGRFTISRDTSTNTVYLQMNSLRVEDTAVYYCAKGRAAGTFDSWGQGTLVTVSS
VL: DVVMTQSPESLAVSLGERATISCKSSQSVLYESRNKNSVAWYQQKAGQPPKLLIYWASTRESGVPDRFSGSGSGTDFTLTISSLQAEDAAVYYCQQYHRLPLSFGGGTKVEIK

The parent's heavy chain CDRs are GFTLNSYGIS, VIYSDGRRTFYGDSVK, GRAAGTFDS; each variant's own CDRs replace them letter for letter.
Affinities are written as log10 Kd with Kd in nM; a lower number is a better binder.
A mean of the replicates is given; it leaves out those without a signal.
A pair that was not seen in that replicate is written "n.d."; this usually means weak binding, but a binder can also be missed.
Background: pairings of all heavy chain designs with three empty control strains gave a value in 1% of cases (median 2.08, 5th percentile 0.84). Values in that range, when seen in few replicates, are hard to tell from nonspecific mating. Also given: how often the same scFv was detected with the empty control strains, with their mean in brackets.
In the paper, a design with two or fewer of six values counts as a poor binder.
Values of this round are not directly comparable with the first-round values of the same sequences.
The parent sequence was in this pool as ten entries: three were never detected, three once, and four in most replicates, with averages from 0.34 to 2.37.

CDR-H1 | CDR-H2 | CDR-H3 | log10 Kd, replicates | log10 Kd (nM), mean | signal with controls
GFSLDEYGIS | VIYADGRRTFYADSVK | GNEAGTFDS | -0.63 / -0.48 / -0.65 / -0.68 / -0.71 / -0.55 | -0.62 | 0/18
GFDLNEYGIS | VIYADGRRTFYADSVK | GEVAGTFNS | -0.34 / -0.72 / -0.81 / -0.69 / -0.87 / -0.77 | -0.70 | 0/18
GFDLNEYGIS | VIYADGSRTFYADSVK | GEVAGTFDL | -0.42 / -0.18 / -0.43 / -0.22 / -0.45 / 0.15 | -0.26 | 0/18
GFNLDEYGIS | VIYADGRRTFYADNVK | GQVAGTFDV | -0.29 / -0.14 / -0.41 / -0.51 / -0.65 / -0.42 | -0.40 | 0/18
GFDINEYGIS | VIYADGRRTFYADSVK | GNQAGTFDI | -0.04 / -0.13 / -0.28 / -0.14 / -0.43 / -0.04 | -0.18 | 0/18
GFNLDEYGIS | VIYADGRRTFYSDSVK | GEVAGTFDL | -0.43 / -0.05 / -0.58 / -0.69 / -0.64 / -0.31 | -0.45 | 0/18
GFDLNEYGIS | VIYADGRRTFYADSVK | GQEAGTFNM | -0.21 / -0.63 / -0.70 / -0.70 / -0.66 / -0.38 | -0.55 | 0/18
GFDLNEYGIS | VIYADGMRTFYADSVK | GQVAGTFDQ | -0.21 / -0.08 / -0.59 / -0.48 / -0.49 / -0.16 | -0.33 | 1/18 (2.08)
GFNLDEYGIS | VIYADGMRTFYSDNVK | GEAAGTFDI | 1.73 / -0.33 / -0.50 / -0.25 / -0.48 / 0.80 | 0.16 | 0/18
GFDLNEYGIS | VIYADGRRTFYSDSVK | GEAGGTFDV | 0.37 / 0.70 / -0.18 / 0.36 / -0.08 / 0.75 | 0.32 | 0/18
GFDLNEYGIS | VIYADGRRTFYADSVK | GEIAGTFDM | -0.44 / -0.69 / -0.92 / -0.80 / -0.77 / -0.49 | -0.68 | 0/18
GFDLNEYGIS | VIYADGRRTQYIDSVK | GQVAGTFDS | -0.53 / 0.15 / -0.70 / -0.32 / -1.19 / -0.77 | -0.56 | 0/18
GFDLNEYGIS | VIYADGRRTAYDDSVK | GQVAGTFDF | -0.55 / -0.34 / -0.74 / -0.75 / -0.53 / -0.31 | -0.54 | 0/18
GFDLNEYGIS | VIYADGRRTSYIDSVK | GEAAGTFDL | -0.05 / -0.11 / -0.12 / -0.50 / -0.39 / -0.21 | -0.23 | 0/18
GFDLDEYGIS | VIYADGVRTFYADSVK | GQNAGTFDV | -0.01 / 0.08 / -0.29 / -0.65 / -0.97 / -0.22 | -0.34 | 0/18
GFDLNEYGIS | VIYADGRRTFYSDSVK | GTIGGTFDM | -0.38 / -0.49 / -0.34 / -0.81 / -0.37 / -0.27 | -0.44 | 0/18
GFDLNEYGIS | VIYADGQRTFYSDSVK | GEIAGTFDV | -0.37 / -0.54 / -0.38 / -0.67 / -0.58 / 0.06 | -0.41 | 0/18
GFGLDEYGIS | VIYADGRRTFYADSVK | GENAGTFSM | -0.13 / -0.02 / -0.21 / -0.57 / -0.26 / -0.26 | -0.24 | 0/18
GFDLEDYGIS | VIYADGRRTAYADSVK | GETAGTFDV | 0.49 / 0.33 / 0.38 / 0.21 / 0.23 / 0.68 | 0.39 | 2/18 (2.35)
GFNLDEYGIS | VIYADGQRTFYADSVK | GSHAGTFDT | -0.47 / -0.50 / -0.72 / -0.88 / -0.80 / -0.60 | -0.66 | 0/18
GFNLNEYGIS | VIYADGRRTFYSDSVK | GEMGGTFDV | 0.92 / -0.13 / -0.15 / 0.09 / 0.00 / 0.13 | 0.14 | 1/18 (2.26)
GFDLNEYGIS | VIYADGRRTAYSDSVK | GGNAGIFDS | n.d. / n.d. / n.d. / n.d. / n.d. / 2.61 | 2.61 | 0/18
GFDLNEYGIS | VIYADGRRTFYADSVK | GSQAGTFDM | -0.18 / -0.23 / -0.46 / -0.54 / -0.39 / -0.34 | -0.36 | 0/18
GFDLNEYGIS | VIYADGMRTFYADSVK | GKNAGTFLV | 2.17 / 1.39 / 1.48 / 1.00 / 1.07 / 1.76 | 1.48 | 0/18
GFNLNEYGIS | VIYADGQRTFYADSVK | GEVAGTFDV | 0.20 / 0.32 / 0.30 / -0.27 / 0.26 / 0.69 | 0.25 | 0/18
GFDLNEYGIS | VIYADGRRTFYSDSVK | GGNAGTFDI | -0.34 / -0.51 / -0.74 / -0.79 / -0.69 / -0.61 | -0.61 | 0/18
GFDLNEYGIS | VIYADGMRTTYTDSVK | GNEAGTFDS | 0.11 / 0.75 / -0.48 / 0.19 / 0.23 / 0.07 | 0.14 | 0/18
GFDLEEYGIS | VIYADGKRTFYSDSVK | GEAAGTFDS | 0.33 / -0.05 / -0.25 / -0.01 / 0.15 / 0.05 | 0.04 | 0/18
GFDLDEYGIS | VIYADGRRTAYQDSVK | GNVAGTFDV | -0.33 / -0.64 / -0.66 / -0.62 / -0.42 / -0.60 | -0.54 | 1/18 (1.73)
GFDLDEYGIS | VIYADGRRTFYADSVK | GEIAGTFDI | 1.76 / 0.70 / 0.32 / 0.85 / 0.74 / -0.21 | 0.70 | 0/18
GFDLNEYGIS | VIYADGRRTFYADSVK | GEAAGFFDQ | 0.51 / 0.39 / 0.68 / 0.04 / 0.13 / 0.61 | 0.39 | 0/18
GFDLNEYGIS | VIYADGMRTNYTDSVK | GNEAGTFDS | n.d. / n.d. / n.d. / n.d. / n.d. / n.d. | n.d. | 0/18
GFDLNEYGIS | VIYADGKRTQYIDSVK | GETAGTFDS | -0.04 / 0.06 / -0.55 / -0.07 / -0.37 / 0.04 | -0.15 | 0/18
GFDLDEYGIS | VIYADGMRTFYADSVK | GNIAGTFLD | -0.11 / -0.46 / -0.48 / -0.33 / -0.63 / -0.21 | -0.37 | 0/18
GFDLNEYGIS | VIYADGRRTFYTDQVK | GQNAGTFDM | 1.35 / 0.57 / n.d. / 1.54 / 0.57 / n.d. | 1.01 | 0/18
GFDLDEYGIS | VIYADGKRTFYADDVK | GNVAGTFDV | -0.54 / -0.44 / -0.33 / -0.62 / -0.81 / -0.07 | -0.47 | 0/18
GFDLNEYGIS | VIYADGQRTAYADSVK | GKAAGTFDE | 0.01 / 1.00 / -0.10 / 0.70 / -0.42 / -0.45 | 0.12 | 0/18
GFNLNEYGIS | VIYADGRRTFYADSVK | GEIAGTFIV | 0.05 / 0.15 / 0.41 / 0.20 / 0.64 / 0.33 | 0.30 | 1/18 (3.46)
GFNLNEYGIS | VIYADGKRKFYADSVK | GNTAGTFDS | -0.08 / -0.48 / -0.59 / -0.82 / -0.68 / -0.49 | -0.53 | 0/18
GFDLEEYGIS | VIYADGRRTFYSDSVK | GETAGTFDV | -0.34 / 0.17 / -0.11 / -0.18 / -0.45 / -0.18 | -0.18 | 0/18
GFDLNEYGIS | VIYADGRRTAYIDSVK | GANAGTFDV | -0.33 / -0.03 / -0.72 / -0.16 / -0.51 / -0.57 | -0.39 | 0/18
GFDLNEYGIS | VIYADGVRTSYADSVK | GQNAGTFDQ | -0.05 / -0.11 / -0.55 / -0.95 / -0.59 / -0.40 | -0.44 | 1/18 (1.14)
GFDLNEYGIS | VIYADGVRKFYADSVK | GENAGTFDV | -0.16 / -0.27 / -0.41 / -0.01 / -0.23 / -0.15 | -0.20 | 0/18
GFDLNEYGIS | VIYADGVRTAYIDSVK | GNQAGTFDQ | -0.34 / 0.07 / -0.35 / -0.26 / -0.18 / -0.17 | -0.20 | 1/18 (1.86)
GFDLNEYGIS | VIYADGFRTFYTDSVK | GEVAGTFDL | 0.99 / -0.12 / 0.63 / -0.01 / -0.23 / 0.56 | 0.30 | 0/18
GFNLNEYGIS | VIYADGMRTAYSDSVK | GEVAGTFDV | 0.06 / -0.27 / 0.13 / -0.26 / -0.08 / -0.13 | -0.09 | 0/18
GFTLDEYGIS | VIYADGRRTFYADNVK | GNVAGTFDQ | -0.21 / -0.26 / -0.53 / -0.82 / -0.40 / -0.48 | -0.45 | 0/18
GFDLNEYGIS | VIYADGRRTYYADSVK | GEIAGTFDV | -0.18 / -0.34 / -0.35 / -0.67 / -0.54 / -0.12 | -0.37 | 0/18
GFNLNEYGIS | VIYADGRRTFYADSVK | GGQAGTFDV | n.d. / 0.20 / -0.31 / -0.42 / -1.00 / 0.79 | -0.15 | 0/18
GFDLNEYGIS | VIYADGRRTMYADSVK | GEVAGTFNS | -0.63 / -0.65 / -0.53 / -1.12 / -1.17 / -0.72 | -0.80 | 2/18 (1.41)
GFDLNEYGIS | VIYADGRRTAYDDSVK | GQVAGTFDS | -0.14 / -0.56 / -0.32 / -0.55 / -0.19 / -0.57 | -0.39 | 0/18
GFNLDEYGIS | VIYADGRRTFYADSVK | GEHAGTFDI | -0.60 / -0.64 / -0.45 / -0.70 / -0.65 / -0.38 | -0.57 | 0/18

A selection of 4 entries from above:

| CDR-H1 | CDR-H2 | CDR-H3 | log10 Kd, replicates | log10 Kd (nM), mean | signal with controls |
|---|---|---|---|---|---|
| GFDLNEYGIS | VIYADGRRTAYSDSVK | GGNAGIFDS | n.d. / n.d. / n.d. / n.d. / n.d. / 2.61 | 2.61 | 0/18 |
| GFDLNEYGIS | VIYADGVRTAYIDSVK | GNQAGTFDQ | -0.34 / 0.07 / -0.35 / -0.26 / -0.18 / -0.17 | -0.20 | 1/18 (1.86) |
| GFDLNEYGIS | VIYADGRRTFYADSVK | GEIAGTFDM | -0.44 / -0.69 / -0.92 / -0.80 / -0.77 / -0.49 | -0.68 | 0/18 |
| GFDLNEYGIS | VIYADGRRTFYTDQVK | GQNAGTFDM | 1.35 / 0.57 / n.d. / 1.54 / 0.57 / n.d. | 1.01 | 0/18 |